The entries are a selection whose mix differs from that of the whole data set. The source made the active and inactive calls.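 Rule for the calls: active = fluorescence ratio falls more than 5 SD below the full-stimulation control mean, in both duplicate runs; inactive = the rest.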
target: Short transient receptor potential channel 6 (Mus musculus) (UniProt Q61143); assay: mouse TRPC6 channel inhibitors, confirmation, HEK293 cells, membrane potential dye, duplicate (AID 488960); settings: ACh-evoked depolarization, at 10 µM, active compounds read high;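 note: integrated fluorescence ratio of peak minus minimum over baseline after agonist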

Amino acid sequences for entries named in this document (tags omitted). A change or cut given only in a name is not applied to a line headed by its entry.
UniProt Q61143: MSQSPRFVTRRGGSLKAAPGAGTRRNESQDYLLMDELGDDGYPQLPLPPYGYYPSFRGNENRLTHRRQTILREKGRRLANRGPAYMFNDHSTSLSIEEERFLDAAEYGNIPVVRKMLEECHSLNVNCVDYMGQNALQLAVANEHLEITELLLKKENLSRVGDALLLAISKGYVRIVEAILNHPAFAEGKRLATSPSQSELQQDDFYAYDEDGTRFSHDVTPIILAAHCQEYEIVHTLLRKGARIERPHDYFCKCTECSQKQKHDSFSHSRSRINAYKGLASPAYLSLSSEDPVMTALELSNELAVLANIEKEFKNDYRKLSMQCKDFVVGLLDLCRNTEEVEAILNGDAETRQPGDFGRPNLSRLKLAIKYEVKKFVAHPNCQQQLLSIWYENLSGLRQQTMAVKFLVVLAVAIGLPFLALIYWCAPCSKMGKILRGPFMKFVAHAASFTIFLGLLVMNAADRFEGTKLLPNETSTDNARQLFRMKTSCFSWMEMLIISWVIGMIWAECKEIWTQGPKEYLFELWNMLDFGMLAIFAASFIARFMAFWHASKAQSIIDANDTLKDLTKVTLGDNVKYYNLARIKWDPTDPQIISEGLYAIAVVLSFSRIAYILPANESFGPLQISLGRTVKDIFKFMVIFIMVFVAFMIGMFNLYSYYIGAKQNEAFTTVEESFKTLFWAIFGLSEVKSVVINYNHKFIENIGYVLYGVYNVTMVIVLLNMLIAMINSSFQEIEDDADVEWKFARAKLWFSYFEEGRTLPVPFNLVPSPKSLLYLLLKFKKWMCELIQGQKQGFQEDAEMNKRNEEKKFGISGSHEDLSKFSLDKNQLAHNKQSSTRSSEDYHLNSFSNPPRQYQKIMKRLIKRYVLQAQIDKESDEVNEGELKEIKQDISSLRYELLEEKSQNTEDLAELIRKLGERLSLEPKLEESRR

Row | Structure (SMILES) | inhibition
1 | O=[N+]([O-])c1ccc(O)c(/C=N/Nc2ccc([N+](=O)[O-])cc2[N+](=O)[O-])c1 | inactive: 0%
2 | CN1CCCC(OC(=O)C(c2ccccc2)c2ccccc2)C1 (centres undefined) | inactive: 0%
3 | O=C(OC1CN2CCC1CC2)C12CC3CC(CC(C3)C1)C2 (centres undefined) | active: 77.5%
4 | CCC1=CC2Cc3nc4ccc(Cl)cc4c(N)c3C(C1)C2 (centres undefined) | active: 110%
